Test results as given in patent US11845808B2, “Peptide inhibitors of interleukin-23 receptor and their use to treat inflammatory diseases” (Janssen Biotech, Inc., priority 2020, dated 2023).

Sequences of proteins named here, by UniProt entry; tags and fusion partners are left off. Residues count along the entry.
UniProt Q5VWK5, 24-629 limits assumed: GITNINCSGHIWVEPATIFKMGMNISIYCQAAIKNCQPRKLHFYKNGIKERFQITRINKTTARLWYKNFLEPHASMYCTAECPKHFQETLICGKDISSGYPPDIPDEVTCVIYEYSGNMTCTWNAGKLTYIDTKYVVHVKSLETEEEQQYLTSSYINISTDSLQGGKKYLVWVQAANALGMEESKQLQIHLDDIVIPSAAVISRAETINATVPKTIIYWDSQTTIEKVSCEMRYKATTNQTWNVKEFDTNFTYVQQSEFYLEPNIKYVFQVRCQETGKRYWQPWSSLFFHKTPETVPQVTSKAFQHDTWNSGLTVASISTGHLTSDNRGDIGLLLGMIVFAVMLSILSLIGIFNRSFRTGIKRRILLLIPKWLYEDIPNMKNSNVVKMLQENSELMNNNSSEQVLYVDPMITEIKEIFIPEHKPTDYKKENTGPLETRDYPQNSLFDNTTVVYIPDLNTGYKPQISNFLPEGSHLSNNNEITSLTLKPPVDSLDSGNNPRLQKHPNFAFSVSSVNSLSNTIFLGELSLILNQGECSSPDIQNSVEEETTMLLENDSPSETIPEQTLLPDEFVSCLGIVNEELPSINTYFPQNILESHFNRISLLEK

Legend:
[1] = Stability in human fecal homogenate; type: in vitro ADME; conditions: 20% human fecal homogenate, 37° C., 20 μM
[2] = target: IL-23 stimulated phosphorylated STAT3 in PBMCs (Homo sapiens, UniProt Q5VWK5); test: PBMC pSTAT3 assay; type: cell-based; conditions: PBMCs from healthy donors, IL-23 5 ng/mL, 30 minutes
[3] = Stability in simulated gastric fluid (SGF); type: in vitro ADME; conditions: pepsin, pH=2, 37° C., 20 μM peptide
Experimental: Studies were carried out in simulated intestinal fluid (SIF) and simulated gastric fluid (SGF) to evaluate gastric stability of the peptide inhibitors of the present invention. In addition, studies were carried out to assess redox stability of the peptide inhibitors of the present invention.
SGF was prepared by adding 20 mg NaCl, 32 mg porcine pepsin (MP Biochemicals, catalog 02102599), and 700 HCl to 10 ml water (final pH=2). Aliquots of SGF (0.5 ml each) were pre-warmed at 37° C. To start the reaction, 1 μl of peptide stock solution (10 mM in DMSO) was added to 0.5 ml SGF and thoroughly mixed such that the final peptide concentration was 20 μM. The reactions were incubated at 37° C. with gentle shaking. At each time point (0, 15, 30, 60 min) 50 μl aliquots were removed and added to 200 ul acetonitrile containing 0.1% formic acid to quench the reaction. Samples are stored at 4° C. until the end of the experiment and centrifuged at 10,000 rpm for 5 minutes. Aliquots of the supernatant were removed, diluted 1:1 into distilled water containing internal standard, and analyzed by LCMS/MS. Percent remaining at each timepoint was calculated based on the peak area response ratio of test to compound to internal standard. Time 0 was set to 100%, and all later timepoints were calculated relative to time 0. Half-lives were calculated by fitting to a first-order exponential decay equation using GraphPad.

[4] = Stability in cynomolgus monkey fecal homogenate; type: in vitro ADME; conditions: 20% cynomolgus monkey fecal homogenate, 37° C., 20 μM
[5] = Stability in simulated intestinal fluid (SIF); type: in vitro ADME; conditions: 100 fold dilution of standard SIF concentration, 37° C., 20 μM
Method in brief: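 Peptides at 20 μM final were incubated at 37 °C in SIF (potassium phosphate with pancreatin, pH 6.8), and reactions were quenched with acetonitrile/1% formic acid at time points from 0 min to 24 h. Percent remaining relative to time 0 was determined by LC-MS/MS against an internal standard, and half-life came from a first-order decay fit.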

[6] = target: IL-23 induced IFNγ in natural killer (NK) cells (Homo sapiens, UniProt Q5VWK5); test: NK cell based assay (IL-23/IL-18 induced IFNγ); conditions: IL-23 at EC50 to EC75 and IL-18 10 ng/mL, IFNγ in supernatant after 20 to 24 hours
From the text: Example 3: NK Cell Based Assay

[7] = Stability in rat plasma; type: in vitro ADME; conditions: SD rat plasma, 37° C., 20 μM

Substance | t½: Human Feces anaerobic [1] [h] | IC50 [2] [nM] | SGF t½ [3] [h] | t½: Monkey Feces anaerobic [4] [h] | SIF t½ [5] [h] | IC50 [6] [nM] | t½: Rat Plasma EDTA [7] [h]
Ac-[(D)Arg]-[Pen]-N-T-[W(7-Me)]-[Lys(Ac)]-[Pen]-Phe[4-(2-aminoethoxy)]-[2-Nal]-[THP]-E-N-[His_3Me]-NH2 [Peptide 146] | 10.3 | 0.036 | >24.0 | 14.2 | >24.0 | – | –
Ac-[Pen]-N-T-[W(7-Me)]-[Lys(Ac)]-[Pen]-Phe[4-(2-aminoethoxy)]-[2-Nal]-[THP]-E-N-H-[Sarc]-NH2 [Peptide 22] | >24.0 | 0.51 | >24.0 | 7.6 | >24.0 | 0.774 | >24.0
Ac-[Pen]-N-T-[W(7-Me)]-[Lys(Ac)]-[Pen]-Phe[4-(2-aminoethoxy)]-[2-Nal]-[a-MeLys]-[Lys(Ac)]-N-H-[Sarc]-NH2 [Peptide 23] | >24.0 | 0.78 | >24.0 | 15.8 | >24.0 | 0.706 | >24.0
Ac-[Pen]-N-T-[W(7-Me)]-[Lys(Ac)]-[Pen]-Phe[4-(2-aminoethoxy)]-[2-Nal]-[a-MeLys]-[Lys(Ac)]-N-[3Pal]-NH2 [Peptide 80] | >18.1 | – | >24.0 | 14.8 | 0.1 | 0.0515 | >24.0
Ac-[Pen]-N-T-[W(7-Me)]-[Lys(Ac)]-[Pen]-Phe[4-(2-aminoethoxy)]-[2-Nal]-[a-MeLys]-[Lys(Ac)]-N-[3Pal]-[Sarc]-NH2 [Peptide 103] | >24.0 | – | >24.0 | >24.0 | >24.0 | 0.0277 | >24.0
Ac-[Pen]-N-T-[W(7-Me)]-[Lys(Ac)]-[Pen]-Phe[4-(2-aminoethoxy)]-[2-Nal]-[a-MeLys]-[Lys(Ac)]-N-[(D)Leu]-[(D)NMeTyr]-NH2 [Peptide 47] | >24.0 | 1.9 | >24.0 | >24.0 | 20.1 | 1.7 | >24.0
Ac-[Pen]-N-T-[W(7-Me)]-[Lys(Ac)]-[Pen]-Phe[4-(2-aminoethoxy)]-[2-Nal]-[a-MeLys]-[Lys(Ac)]-N-[(D)Lys]-[(D)NMeTyr]-NH2 [Peptide 48] | >24.0 | 1.7 | >24.0 | >24.0 | 13.9 | 1.01 | >24.0
Ac-[Pen]-N-T-[W(7-Me)]-[Lys(Ac)]-[Pen]-Phe[4-(2-aminoethoxy)]-[3-Quin]-[a-MeLys]-[Lys(Ac)]-N-H-[Sarc]-NH2 [Peptide 5] | >24.0 | 2.6 | >24.0 | 15.8 | >24.0 | 0.785 | >24.0
Ac-[Pen]-N-T-[W(7-Me)]-[Lys(Ac)]-[Pen]-Phe[4-(2-aminoethoxy)]-[3Quin]-[THP]-E-N-H-[Sarc]-NH2 [Peptide 53] | 17.7 | 1.8 | >24.0 | >24.0 | 21.6 | 0.812 | >24.0
Ac-[Pen]-N-T-[W(7-Me)]-[Lys(Gly)]-[Pen]-Phe[4-(2-aminoethoxy)]-[2-Nal]-[THP]-E-N-H-[Sarc]-NH2 [Peptide 26] | 4.4 | 0.95 | >24.0 | 5.3 | 20.3 | 0.587 | >24.0
Ac-[Pen]-N-T-[W(7-Me)]-[Lys(bAla)]-[Pen]-Phe[4-(2-aminoethoxy)]-[2-Nal]-[THP]-E-N-H-[Sarc]-NH2 [Peptide 30] | 7.7 | – | >24.0 | 9.6 | >24.0 | 0.896 | >24.0
Ac-[Pen]-N-T-[W(7-Ph)]-[Lys(Ac)]-[Pen]-Phe[4-(2-aminoethoxy)]-[2-Nal]-[THP]-E-N-H-[Sarc]-NH2 [Peptide 52] | >24.0 | 0.34 | >24.0 | 19.5 | >24.0 | 0.46 | >24.0
Ac-[Pen]-N-T-[W(7-Ph)]-[Lys(Ac)]-[Pen]-Phe[4-(2-aminoethoxy)]-[2-Nal]-[a-MeLys]-[Lys(Ac)]-N-H-[Sarc]-NH2 [Peptide 51] | >24.0 | 0.87 | >24.0 | 24.6 | >24.0 | 0.627 | >24.0
Ac-[Pen]-N-T-[W(7-Ph)]-[Lys(Ac)]-[Pen]-Phe[4-(2-aminoethoxy)]-[2-Nal]-[a-MeLys]-[Lys(Ac)]-N-[3Pal]-[Sarc]-NH2 [Peptide 105] | >24.0 | 0.019 | >24.0 | >24.0 | >24.0 | 0.0523 | >24.0
Ac-[Pen]-N-T-[W(7-Ph)]-[Lys(Ac)]-[Pen]-Phe[4-(2-aminoethoxy)]-[3Quin]-[THP]-E-N-H-[Sarc]-NH2 [Peptide 15] | >24.0 | 2.2 | >24.0 | >24.0 | >24.0 | 0.963 | >24.0
Ac-[Pen]-N-T-[W(7-Ph)]-[Lys(Ac)]-[Pen]-Phe[4-(2-aminoethoxy)]-[3Quin]-[a-MeLys]-[Lys(Ac)]-N-H-[Sarc]-NH2 [Peptide 16] | >24.0 | 1.9 | >24.0 | 20.8 | >24.0 | 0.779 | >24.0
Ac-[Pen]-S-T-[W(7-Ph)]-[Lys(Ac)]-[Pen]-Phe[4-(2-aminoethoxy)]-[2-Nal]-[THP]-E-N-H-[Sarc]-NH2 [Peptide 60] | >24.0 | – | >24.0 | 21.4 | >24.0 | 0.973 | >24.0
